Results published in patent publication US5571521A, “Composition containing silver ammonium phenytoin complex and a phenytoin and use of said composition” (priority 1995, dated 1996).

Assay: Solubility

Substance: Silver Ammonium Diphenyl Hydantoin [Silver ammonium phenytoin]
- solubility in aqueous media (aqueous media): poor solubility
- solubility (reaction solution (precipitation)): very insoluble
